Measured values reported in US11618753B2 (priority 2018, dated 2023).

Amino acid sequences for entries named in this document (tags omitted). A change or cut given only in a name is not applied to a line headed by its entry.
UniProt O00329: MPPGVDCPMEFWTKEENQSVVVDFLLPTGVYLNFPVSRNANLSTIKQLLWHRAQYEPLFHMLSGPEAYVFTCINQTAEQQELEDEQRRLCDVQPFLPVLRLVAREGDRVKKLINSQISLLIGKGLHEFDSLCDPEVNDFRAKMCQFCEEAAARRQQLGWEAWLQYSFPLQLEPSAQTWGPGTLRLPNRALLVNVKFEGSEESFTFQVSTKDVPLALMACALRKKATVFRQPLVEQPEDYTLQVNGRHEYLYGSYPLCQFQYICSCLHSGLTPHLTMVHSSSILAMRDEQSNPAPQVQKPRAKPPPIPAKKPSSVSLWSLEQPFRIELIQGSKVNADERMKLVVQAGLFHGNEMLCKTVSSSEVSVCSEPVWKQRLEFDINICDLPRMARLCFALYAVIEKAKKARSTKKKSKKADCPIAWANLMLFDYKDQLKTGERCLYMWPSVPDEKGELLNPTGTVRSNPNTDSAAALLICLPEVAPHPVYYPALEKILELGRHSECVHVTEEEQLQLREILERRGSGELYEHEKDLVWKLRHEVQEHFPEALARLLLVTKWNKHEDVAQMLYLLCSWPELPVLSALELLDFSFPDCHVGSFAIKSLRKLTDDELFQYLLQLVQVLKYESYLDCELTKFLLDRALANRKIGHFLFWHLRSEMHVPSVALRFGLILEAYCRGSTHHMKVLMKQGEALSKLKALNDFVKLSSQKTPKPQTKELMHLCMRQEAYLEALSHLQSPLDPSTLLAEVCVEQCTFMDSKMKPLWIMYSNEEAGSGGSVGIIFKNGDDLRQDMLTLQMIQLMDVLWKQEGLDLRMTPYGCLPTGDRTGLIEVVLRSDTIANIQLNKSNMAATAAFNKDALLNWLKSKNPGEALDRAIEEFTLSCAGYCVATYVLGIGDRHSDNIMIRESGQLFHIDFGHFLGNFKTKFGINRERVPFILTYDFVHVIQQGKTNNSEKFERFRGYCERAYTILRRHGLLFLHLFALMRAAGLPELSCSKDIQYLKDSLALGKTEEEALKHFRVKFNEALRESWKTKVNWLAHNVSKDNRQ

Biological target: GST-tagged PIK3Cδ in complex with PIK3R1 (Homo sapiens (Human), UniProt O00329)
Test: biochemical

Point of comparison: C[C@@](O)(C(=O)N1C[C@H](F)[C@H](NC(=O)c2cc(-c3cc(C(F)(F)F)c4c(N)ncnn34)cc(F)c2F)C1)C(F)(F)F [Example 1332, 5-[4-amino-5-(trifluoromethyl)pyrrolo-[2,1-f][1,2,4]triazin-7-yl]-2,3-difluoro-N-[(3R,4S)-4-fluoro-1-[(2R)-3,3,3-trifluoro-2-hydroxy-2-methyl-propanoyl]pyrrolidin-3-yl]benzamide], IC50 0.128 µM. Against it:
- COc1ncc(-c2cc(CN3CCC(F)(F)CC3)c3c(N)ncnn23)cc1C(=O)N[C@@H]1CN(C(=O)c2c(F)cccc2Cl)C[C@@H]1F [Example 1270, 5-{4-amino-5-[(4,4-difluoropiperidin-1-yl)methyl]pyrrolo[2,1-f][1,2,4]triazin-7-yl}-N-[(3R,4S)-1-(2-chloro-6-fluorobenzoyl)-4-fluoropyrrolidin-3-yl]-2-methoxypyridine-3-carboxamide] — higher, > 15 µM
- [2H]C([2H])([2H])Oc1ncc(-c2cc(CN3CC(F)(F)C3)c3c(N)ncnn23)cc1C(=O)N[C@@H]1CN(C(=O)c2ccc(F)cc2)C[C@@H]1F [Example 1275, 5-{4-amino-5-[(3,3-difluoroazetidin-1-yl)methyl]pyrrolo[2,1-f][1,2,4]triazin-7-yl}-N-[(3R,4S)-4-fluoro-1-(4-fluorobenzoyl)pyrrolidin-3-yl]-2-(methoxy-d3)nicotinamide] — 39-fold higher, 4.97 µM
- [2H]C([2H])([2H])Oc1ncc(-c2cc(CN3CC(F)(F)C3)c3c(N)ncnn23)cc1C(=O)N[C@@H]1CN(S(=O)(=O)CC(F)(F)F)C[C@@H]1F [Example 1278, 5-{4-amino-5-[(3,3-difluoroazetidin-1-yl)methyl]pyrrolo[2,1-f][1,2,4]triazin-7-yl}-N-[(3R,4S)-4-fluoro-1-(2,2,2-trifluoroethanesulfonyl)pyrrolidin-3-yl]-2-(methoxy-d3)nicotinamide] — higher, > 15 µM
- [2H]C([2H])([2H])Oc1ncc(-c2cc(CN3CC(F)(F)C3)c3c(N)ncnn23)cc1C(=O)N[C@@H]1CN(C(=O)CC(C)C)C[C@@H]1F [Example 1285, 5-{4-amino-5-[(3,3-difluoroazetidin-1-yl)methyl]pyrrolo[2,1-f][1,2,4]triazin-7-yl}-N [(3R,4S)-4-fluoro-1-(3-methylbutanoyl)pyrrolidin-3-yl]-2-(methoxy-d3)nicotinamide] — 41-fold higher, 5.21 µM
- CCc1c(F)cc(-c2cc(C(F)(F)F)c3c(N)ncnn23)cc1C(=O)N[C@@H]1CN(C(=O)C2CC(F)(F)C2)C[C@@H]1F [Example 1338, 5-[4-amino-5-(trifluoromethyl)pyrrolo-[2,1-f][1,2,4]triazin-7-yl]-N-[(3R,4S)-1-(3,3-difluorocyclobutanecarbonyl)-4-fluoropyrrolidin-3-yl]-2-ethyl-3-fluorobenzamide] — 2.5-fold higher, 0.322 µM
- COc1ncc(-c2cc(C(F)(F)F)c3c(N)ncnn23)cc1C(=O)Nc1ncn(Cc2ccccc2)n1 [Example 1344, 5-[4-amino-5-(trifluoromethyl)pyrrolo[2,1-f][1,2,4]triazin-7-yl]-N-(1-benzyl-1H-1,2,4-triazol-3-yl)-2-methoxypyridine-3-carboxamide] — higher, > 15 µM
- COc1ncc(-c2cc(C(F)(F)F)c3c(N)ncnn23)cc1C(=O)N[C@@H]1CN(S(=O)(=O)C2CCCCC2)C[C@@H]1F [Example 1462, 5-[4-amino-5-(trifluoromethyl)pyrrolo[2,1-f][1,2,4]triazin-7-yl]-N-[(3R,4S)-1-(cyclohexanesulfonyl)-4-fluoropyrrolidin-3-yl]-2-methoxypyridine-3-carboxamide] — higher, > 15 µM
- CCOC(=O)N1C[C@H](F)[C@H](NC(=O)c2cc(-c3cc(CN4CCC(F)(F)CC4)c4c(N)ncnn34)cnc2OC)C1 [Example 1500, ethyl (3R,4S)-3-(5-{4-amino-5-[(4,4-difluoropiperidin-1-yl)methyl]pyrrolo[2,1-f][1,2,4]triazin-7-yl}-2-methoxypyridine-3-amido)-4-fluoropyrrolidine-1-carboxylate] — higher, > 15 µM
- COc1ncc(-c2cc(CN3CCC(F)(F)CC3)c3c(N)ncnn23)cc1C(=O)N[C@@H]1CN(C(=O)OC(C)CC(F)(F)F)C[C@@H]1F (stereo partly drawn) [Example 1506, 4,4,4-trifluorobutan-2-yl (3R,4S)-3-(5-{4-amino-5-[(4,4-difluoropiperidin-1-yl)methyl]pyrrolo[2,1-f][1,2,4]triazin-7-yl}-2-methoxypyridine-3-amido)-4-fluoropyrrolidine-1-carboxylate] — higher, > 15 µM
- COc1ncc(-c2cc(CN3CCC(F)(F)CC3)c3c(N)ncnn23)cc1C(=O)N[C@@H]1CN(C(=O)OC2CCC2)C[C@@H]1F [Example 1509, cyclobutyl (3R,4S)-3-(5-{4-amino-5-[(4,4-difluoropiperidin-1-yl)methyl]pyrrolo[2,1-f][1,2,4]triazin-7-yl}-2-methoxypyridine-3-amido)-4-fluoropyrrolidine-1-carboxylate] — higher, > 15 µM
- COc1ncc(-c2cc(CN3CCC(F)(F)CC3)c3c(N)ncnn23)cc1C(=O)N[C@@H]1CN(C(=O)OCC2(C(F)(F)F)CC2)C[C@@H]1F [Example 1510, [1-(trifluoromethyl)cyclopropyl]methyl (3R,4S)-3-(5-{4-amino-5-[(4,4-difluoropiperidin-1-yl)methyl]pyrrolo[2,1-f][1,2,4]triazin-7-yl}-2-methoxypyridine-3-amido)-4-fluoropyrrolidine-1-carboxylate] — higher, > 15 µM
- COc1ncc(-c2cc(CN3CCC(F)(F)CC3)c3c(N)ncnn23)cc1C(=O)N[C@@H]1CN(C(=O)OCC(C)(C)C)C[C@@H]1F [Example 1514, 2,2-dimethylpropyl (3R,4S)-3-(5-{4-amino-5-[(4,4-difluoropiperidin-1-yl)methyl]pyrrolo[2,1-f][1,2,4]triazin-7-yl}-2-methoxypyridine-3-amido)-4-fluoropyrrolidine-1-carboxylate] — higher, > 15 µM
- COc1ncc(-c2cc(CN3CCC(F)(F)CC3)c3c(N)ncnn23)cc1C(=O)N[C@@H]1CN(C(=O)O[C@H](C)C2CC2)C[C@@H]1F [Example 1515, (1R)-1-cyclopropylethyl (3R,4S)-3-(5-{4-amino-5-[(4,4-difluoropiperidin-1-yl)methyl]pyrrolo[2,1-f][1,2,4]triazin-7-yl}-2-methoxypyridine-3-amido)-4-fluoropyrrolidine-1-carboxylate] — higher, > 15 µM
- COc1ncc(-c2cc(CN3CCC(F)(F)CC3)c3c(N)ncnn23)cc1C(=O)N[C@@H]1CN(C(=O)OCCCF)C[C@@H]1F [Example 1516, 3-fluoropropyl (3R,4S)-3-(5-{4-amino-5-[(4,4-difluoropiperidin-1-yl)methyl]pyrrolo[2,1-f][1,2,4]triazin-7-yl}-2-methoxypyridine-3-amido)-4-fluoropyrrolidine-1-carboxylate] — higher, > 15 µM
- COc1ncc(-c2cc(CN3CCC(F)(F)CC3)c3c(N)ncnn23)cc1C(=O)N[C@@H]1CN(C(=O)OCC2CC2)C[C@@H]1F [Example 1517, cyclopropylmethyl (3R,4S)-3-(5-{4-amino-5-[(4,4-difluoropiperidin-1-yl)methyl]pyrrolo[2,1-f][1,2,4]triazin-7-yl}-2-methoxypyridine-3-amido)-4-fluoropyrrolidine-1-carboxylate] — higher, > 15 µM
- COc1ncc(-c2cc(CN3CCC(F)(F)CC3)c3c(N)ncnn23)cc1C(=O)N[C@@H]1CN(C(=O)OCC(C)(F)F)C[C@@H]1F [Example 1518, 2,2-difluoropropyl (3R,4S)-3-(5-{4-amino-5-[(4,4-difluoropiperidin-1-yl)methyl]pyrrolo[2,1-f][1,2,4]triazin-7-yl}-2-methoxypyridine-3-amido)-4-fluoropyrrolidine-1-carboxylate] — higher, > 15 µM
- COc1ncc(-c2cc(CN3CCC(F)(F)CC3)c3c(N)ncnn23)cc1C(=O)N[C@@H]1CN(C(=O)OC2(C)CC2)C[C@@H]1F [Example 1519, 1-methylcyclopropyl (3R,4S)-3-(5-{4-amino-5-[(4,4-difluoropiperidin-1-yl)methyl]pyrrolo[2,1-f][1,2,4]triazin-7-yl}-2-methoxypyridine-3-amido)-4-fluoropyrrolidine-1-carboxylate] — higher, > 15 µM
- COc1ncc(-c2cc(CN3CCC(F)(F)CC3)c3c(N)ncnn23)cc1C(=O)N[C@@H]1CN(C(=O)OCC(F)(F)C(F)F)C[C@@H]1F [Example 1520, 2,2,3,3-tetrafluoropropyl (3R,4S)-3-(5-{4-amino-5-[(4,4-difluoropiperidin-1-yl)methyl]pyrrolo[2,1-f][1,2,4]triazin-7-yl}-2-methoxypyridine-3-amido)-4-fluoropyrrolidine-1-carboxylate] — higher, > 15 µM
- CCCOC(=O)N1C[C@H](F)[C@H](NC(=O)c2cc(-c3cc(CN4CCC(F)(F)CC4)c4c(N)ncnn34)cnc2OC)C1 [Example 1535, propyl (3R,4S)-3-(5-{4-amino-5-[(4,4-difluoropiperidin-1-yl)methyl]pyrrolo[2,1-f][1,2,4]triazin-7-yl}-2-methoxypyridine-3-amido)-4-fluoropyrrolidine-1-carboxylate] — higher, > 15 µM
- COc1ncc(-c2cc(CN3CCC(F)(F)CC3)c3c(N)ncnn23)cc1C(=O)N[C@@H]1CN(S(=O)(=O)CCC(F)(F)F)C[C@@H]1F [Example 1541, 5-{4-amino-5-[(4,4-difluoropiperidin-1-yl)methyl]pyrrolo[2,1-f][1,2,4]triazin-7-yl}-N-[(3R,4S)-4-fluoro-1-(3,3,3-trifluoropropanesulfonyl)pyrrolidin-3-yl]-2-methoxypyridine-3-carboxamide] — higher, > 15 µM
- COc1ncc(-c2cc(CN3CCC(F)(F)CC3)c3c(N)ncnn23)cc1C(=O)N[C@@H]1CN(S(=O)(=O)CC(F)(F)F)C[C@@H]1F [Example 1542, 5-{4-amino-5-[(4,4-difluoropiperidin-1-yl)methyl]pyrrolo[2,1-f][1,2,4]triazin-7-yl}-N-[(3R,4S)-4-fluoro-1-(2,2,2-trifluoroethanesulfonyl)pyrrolidin-3-yl]-2-methoxypyridine-3-carboxamide] — higher, > 15 µM
- [2H]C([2H])([2H])Oc1ncc(-c2cc(CC3CC(F)(F)C3)c3c(N)ncnn23)cc1C(=O)N[C@@H]1CN(C(=O)OCC(F)(F)F)C[C@@H]1F [Example 1548, 2,2,2-Trifluoroethyl (3R,4S)-3-(5-(4-amino-5-((3,3-difluorocyclobutyl)methyl)pyrrolo[2,1-f][1,2,4]triazin-7-yl)-2-(methoxy-d3)nicotinamido)-4-fluoropyrrolidine-1-carboxylate] — higher, > 15 µM
